Data on 1 substance can be found in US20230190934A1, “METHODS AND COMPOSITIONS FOR TREATING A TUMOR” (Rakuten Medical, Inc., priority 2020, published 2023).

For test [1], the system named is FaDu squamous cell carcinoma cells. Nature of the test: HMGB1 release into culture supernatant after PIT, ELISA. Particulars: illuminated at 32 J/cm^2, compared to no light control. Type of test: cell-based, human. The protocol: (§1) EGFR-expressing A-431 (ATCC® CRL-1555™) epidermoid carcinoma and FaDu (ATCC® HTB-43™) squamous cell carcinoma cells were incubated with anti-EGFR-IRDye 700DX. The tumor cells were illuminated at 32 J/cm^2 for PIT-mediated killing of target cells, and the culture supernatants were assessed for secretion of HMGB1 using an enzyme-linked immunosorbent assay (ELISA). Cells not treated with light served as controls.
(In general: An ELISA detects its analyte on a solid surface through an enzyme-linked reagent.)

Test [2] has as its system BxPC3 cells. As to the kind of experiment: IFN-α2 and IFN-β release after PIT, MesoScaleDiscovery assay. In kind it is cell-based. Particulars: 1 hour after PIT treatment, compared to untreated cells. As to the method: (§2) In some aspects, release of interferon-α proteins (IFNα) and/or interferon-β (IFNβ) from cancer cells is consistent with immunogenic cell death (ICD), and can enhance innate and adaptive cell functionality. A-431, BxPC3, and FaDu cells were incubated with anti-EGFR-IR700 and subjected to illumination, to effect PIT treatment, as described above. Untreated cells served as a control. 1 hour after treatment, IFN-α2 and IFN-β were measured in the medium of treated and untreated cells using a MesoScaleDiscovery IFN-α2 and IFN-β assay.

The subject of test [3] is A-431 epidermoid carcinoma cells. Described as above. Particulars: 1 hour after PIT treatment, compared to untreated cells. In kind it is cell-based. The protocol: as §2
Test [4] concerns FaDu squamous cell carcinoma cells. Nature of the test: Cell surface expression of HSP70, HSP90 and calreticulin after PIT, flow cytometry. In kind it is cell-based, human. Conditions: 12 J/cm^2, 690 nm laser, compared to no light control. As to the method:
(§3) Cell surface expression of HSP70, HSP90, and calreticulin (CRT) was evaluated after incubation with an exemplary antibody-IR700 conjugate and light treatment (PIT) as additional indicators of ICD.
(§4) EGFR-expressing A-431 (ATCC® CRL-1555™) epidermoid carcinoma and FaDu (ATCC® HTB-43™) squamous cell carcinoma cells were incubated with anti-EGFR-IRDye 700DX. A-431 cells were illuminated at 6 J/cm^2 and FaDu cells were illuminated at 12 J/cm^2, with a 690 nm laser. Cell surface expression of HSP70, HSP90, and calreticulin (CRT), were measured by flow cytometry after staining with antibodies specific for each protein. Cells not treated with light served as controls.
For orientation: Flow cytometry measures light scatter and fluorescence of single cells or particles in a stream.

Test [5] concerns EGFR-expressing A-431 epidermoid carcinoma cells. Described as above. Type of test: cell-based. Conditions: 6 J/cm^2, 690 nm laser, compared to no light control. The protocol:
as §3, §4

For test [6] the test system is unchanged. Nature of the test: HMGB1 release into culture supernatant after PIT, ELISA. In kind it is cell-based. Particulars: illuminated at 32 J/cm^2, compared to no light control. The protocol: as §1
Test [7] has as its system FaDu cells. As to the kind of experiment: IFN-α2 and IFN-β release after PIT, MesoScaleDiscovery assay. In kind it is cell-based, human. Particulars: 1 hour after PIT treatment, compared to untreated cells. As to the method:
as §2

“CTX-IR700: exemplary antibody-IR700 conjugate, anti-EGFR (cetuximab)-IRDye 700DX”: the “HMGB1 release into the supernatant” value in test [1] and in test [6] was “large increase” in each case. Moreover, the “IFN-α2 release into the medium” value is reported as “A similar increase was not observed” in test [2], “significantly more” in test [3] and “A similar increase was not observed” in test [7]. Besides, the “IFN-β release into the medium” value is “A similar increase was not observed” in test [2], “significantly more” in test [3] and “A similar increase was not observed” in test [7]. Besides, the “Cell surface expression of HSP70” value in test [4] and in test [5] was “increased expression” in each case. The “Cell surface expression of HSP90” value in test [4] and in test [5] was “increased expression” in each case. The “Cell surface expression of calreticulin (CRT)” value in test [4] and in test [5] was “increased expression” throughout.
